In BindingDB's records for doi:10.1021/jm015521r (Research Triangle Institute, 2001):

Experiment: Inhibition of stimulation of [35S]GTP-gamma-S, binding produced by the selective agonist (SNC-80, delta-receptor), in guinea pig caudate membranes

In the case of CC(C)[C@@H](CN1CC[C@@](C)(c2cccc(O)c2)[C@@H](C)C1)NC(=O)C1Cc2ccc(O)cc2CN1 (stereo partly specified) [7-Hydroxy-1,2,3,4-tetrahydro-isoquinoline-3-carboxylic acid {1-[4-(3-hydroxy-phenyl)-3,4-dimethyl-piperidin-1-ylmethyl]-2-methyl-propyl}-amide], the Ki is reported as > 300 nM.
